# Measured values reported in publication PMC3954112 (Drug and alcohol dependence, 2013).
# The chains behind the UniProt entries cited, without tags or fusion partners.
# UniProt P14416, whole entry: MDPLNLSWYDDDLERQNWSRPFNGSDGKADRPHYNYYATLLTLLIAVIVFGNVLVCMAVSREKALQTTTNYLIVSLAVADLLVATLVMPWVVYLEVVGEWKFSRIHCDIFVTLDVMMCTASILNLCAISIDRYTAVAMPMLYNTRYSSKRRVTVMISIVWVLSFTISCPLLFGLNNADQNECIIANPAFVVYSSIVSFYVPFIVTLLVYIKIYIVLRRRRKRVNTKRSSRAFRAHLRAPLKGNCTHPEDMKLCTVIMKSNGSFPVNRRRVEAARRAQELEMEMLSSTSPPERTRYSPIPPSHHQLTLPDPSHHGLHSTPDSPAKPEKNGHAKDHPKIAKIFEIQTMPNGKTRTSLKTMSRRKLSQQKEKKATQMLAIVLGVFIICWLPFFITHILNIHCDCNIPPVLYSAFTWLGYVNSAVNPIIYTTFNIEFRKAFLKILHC
# Target: human DA D2 receptor (Homo sapiens, UniProt P14416)
# Conditions: read-out: Ki, D2; [3H]N-Methyl-spiperone; HEK293 membranes
smiles,measurement,value
"COc1cc2c(cc1O)[C@@H]1Cc3ccc(OC)c(OC)c3CN1CC2 [l-ICP, l-isocorypalmine]",Ki,41.8 ± 1.8 nM
